scFv variants of Ab-14 (light chain) against a SARS-CoV-2 spike peptide

From the AlphaSeq antibody data of Li et al. 2023 (doi:10.1038/s41467-023-39022-2), copy in the FLAb collection.

Target peptide (SARS-CoV-2 spike, HR2 region): PDVDLGDISGINAS

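The starting antibody came from a phage panning campaign against this peptide. Designed CDR sequences, proposed from the first random library and measured here. Their group label is 14L_En_Gen (En: ensemble of fine-tuned language models; Gen: genetic algorithm). The scFvs were displayed on barcoded MATa yeast, the peptide on MATalpha yeast. The frequency of each diploid, read from paired DNA barcodes, reflects how well the two displayed proteins bind. Scores were corrected for input abundance and mapped to Kd with protein pairs of known affinity run in the same pool. There are six technical replicates.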

Each scFv is VH, a (GGGGS)3 linker, VL, as in the parent Ab-14, and differs from it in the CDRs of the light chain only.
VH: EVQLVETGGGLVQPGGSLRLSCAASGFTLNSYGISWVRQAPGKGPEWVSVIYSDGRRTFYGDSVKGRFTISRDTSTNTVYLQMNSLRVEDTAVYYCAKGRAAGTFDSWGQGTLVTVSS
VL: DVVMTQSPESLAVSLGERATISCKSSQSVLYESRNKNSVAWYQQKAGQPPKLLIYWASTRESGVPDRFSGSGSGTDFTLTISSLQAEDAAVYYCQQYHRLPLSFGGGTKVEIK

Each variant is given by its three light chain CDRs, as the data file delimits them; those of the parent are KSSQSVLYESRNKNSVA, WASTRES, QQYHRLPLS.
Affinities are written as log10 Kd with Kd in nM; a lower number is a better binder.
Averages over replicates are reported, and they cover detected replicates only.
A pair that was not seen in that replicate is written "nd"; this usually means weak binding, but a binder can also be missed.

CDR-L1 | CDR-L2 | CDR-L3 | replicates, log10 nM | mean, log10 nM | signal with controls
KLMQFMNRGTHHTSNIA | DAVNRID | QQYYRLPLA | 0.81 / 0.74 / 0.82 / 0.70 / 0.85 / 0.83 | 0.79 | 2/18 (2.74)
KVSEFMRGLMMRTDSIA | DNETRQS | QQYDRLPLS | 1.40 / 1.70 / 1.94 / 1.94 / 0.41 / 1.65 | 1.51 | 1/18 (1.40)
HITYGMQVMGRHSKSIA | QAETRED | QQYDRLPLI | 0.51 / 0.84 / 0.88 / 0.37 / 0.63 / 0.71 | 0.66 | 2/18 (2.67)
MISQVLNTLTKTGNNVA | DLTEREV | QQYFRLPLS | 0.71 / 1.11 / 1.32 / 0.53 / 0.85 / 0.72 | 0.87 | 1/18 (2.68)
KISQMIRVGSTHSNSIA | EEQTRAK | QQYHRLPLA | 1.02 / 0.48 / 1.02 / 0.85 / 0.74 / 1.48 | 0.93 | 0/18
KLSMITGHLQQSKNNVA | EMVTREN | QQYNRLPLS | 0.92 / 0.50 / 0.05 / -0.35 / 0.31 / 0.07 | 0.25 | 1/18 (2.44)
TISQMMQLFSQTINNVA | EVSTREQ | QQYDRLPLM | nd / 1.58 / 0.48 / 1.42 / 0.35 / 1.04 | 0.98 | 0/18
KIGMTLNTLYEKANNVA | DLVEREN | QQYFRLPLS | 0.31 / -0.07 / -0.26 / -0.38 / -0.63 / -0.10 | -0.19 | 0/18
MLSSVLHMHGVKKNSIA | DLVLRAN | QQYHRLPLS | 2.32 / 1.77 / 2.69 / 1.56 / 2.35 / 2.30 | 2.16 | 0/18
HMSMLTLMGMKQRNSVA | QMTMREN | QQYDRLPLA | 1.05 / 1.54 / 0.74 / 0.80 / 1.85 / 0.34 | 1.05 | 0/18
MLSEVLHMLGVKKNSIA | DLVIRAN | QQYHRLPLF | nd / 0.96 / 1.24 / nd / nd / nd | 1.10 | 0/18
KLSMTSEMEHVNRNSVA | ELVTRMS | QQYNRLPLS | 0.85 / 0.95 / 0.57 / 0.91 / 1.28 / 1.61 | 1.03 | 1/18 (0.79)
MISQILNMGQFAINSVA | QASLRNE | QQYDRLPLA | nd / nd / nd / nd / nd / nd | nd | 0/18
MLSEVLHMLGVKKNSIA | DLVLRAN | QQYHRLPLF | nd / nd / nd / nd / 2.12 / nd | 2.12 | 0/18
MVTQMAMTGMMSKRSVA | NAETRET | QQYHHLPLI | 0.87 / 0.83 / 1.06 / 0.88 / 0.58 / 0.77 | 0.83 | 1/18 (3.54)
MVSQLMLWGHLAKNSIA | EAEMRLN | QQYDRLPLF | nd / nd / 1.89 / nd / nd / nd | 1.89 | 0/18
SISGFMKSLSAHANSVA | DMTNREN | QQYDRLPLS | 0.78 / 0.44 / 0.23 / 0.29 / 0.89 / 0.80 | 0.57 | 1/18 (2.30)
KIGMTLNQLMQKKNNVA | DLVTREN | QQYHRLPLS | 0.12 / 0.41 / -0.10 / -0.28 / -0.10 / 0.14 | 0.03 | 0/18
MMSQVTGLGTRHRNNVA | QTETREP | QQYDRLPLV | 0.70 / 0.75 / 0.33 / 0.83 / 1.05 / 0.77 | 0.74 | 0/18
MVTQMAMTGMTNKRSVA | NAETREY | QQYHRLPLI | nd / nd / nd / nd / nd / nd | nd | 1/18 (1.84)
SLYEMSYELSGKTHSVA | DNSTRGD | QQYFRLPLE | 1.24 / 0.91 / 1.03 / 1.23 / 0.55 / 0.92 | 0.98 | 1/18 (2.35)
MIQQLYNMGTFAINSVA | QASIRNS | QQYDRLPLM | nd / 1.60 / 1.03 / 2.26 / 2.67 / 2.60 | 2.03 | 0/18
KIGQTLNQLMHQKNNVA | DLVTREN | QQYHRLPLS | 0.24 / 0.40 / 0.18 / 0.12 / 0.22 / 0.55 | 0.29 | 0/18
KLTTTMRFEQKKKNNIA | EVTTRTK | QQYNRLPLA | 1.61 / 1.88 / 2.20 / 1.43 / 1.31 / nd | 1.69 | 0/18
TISMVMNHMTKNPNNVA | NMDMRED | QQYDRLPLS | -0.27 / -0.39 / -0.41 / -0.46 / -0.53 / -0.30 | -0.39 | 0/18
KISQMVRVGSTHSNSIA | EEATRMK | QQYHRLPLA | nd / nd / nd / nd / nd / nd | nd | 0/18
TISGIMDQMSHSKNNVA | EVSMRFD | QQYVRLPLE | 1.01 / 1.24 / 0.55 / 0.68 / 0.56 / 1.38 | 0.90 | 2/18 (2.48)
NIYQAMHTLSMNRNNVA | DVNERGS | QQYFRLPLS | 0.19 / -0.16 / -0.33 / -0.26 / -0.05 / -0.11 | -0.12 | 2/18 (2.64)
TLYGLSNSMSINKDSVA | EMTTRED | QQYDRLPLA | nd / 2.97 / nd / 1.34 / nd / 1.80 | 2.03 | 0/18
HLGYATMLESSVRNSVA | NNSTREE | QQYDRLPLS | 1.66 / 1.55 / 1.20 / 1.34 / 1.38 / 1.37 | 1.42 | 2/18 (2.30)
HLGLVTMLEEAVRNSVA | NNSTRED | QQYDRLPLS | 1.53 / 1.59 / 1.52 / 2.15 / 2.16 / 1.99 | 1.82 | 2/18 (2.80)
MISSVMGINNMYNSSVA | QAEERVE | QQYDRLPLS | 2.05 / 1.71 / 2.11 / 2.33 / 3.05 / 2.17 | 2.24 | 0/18
MLSQMWALGSKVSNSVA | QASMRFN | QQYDRLPLI | nd / nd / nd / nd / 2.36 / nd | 2.36 | 0/18
MLSEVLHMLGVMKNSIA | DLVLRAN | QQYHRLPLM | -0.17 / -0.12 / 0.43 / -0.13 / -0.52 / -0.11 | -0.10 | 0/18
QIYQAMHTLSQMKDNVA | DVNERGQ | QQYSRLPLS | 0.04 / -0.13 / 0.05 / 0.07 / 0.14 / 0.23 | 0.07 | 1/18 (2.44)
MLSQMWALGMKAKNSVA | QASMRFE | QQYERLPLI | nd / nd / nd / nd / nd / nd | nd | 0/18
MMSQVWGMGQRHMNNVA | QTSTREE | QQYDRLPLI | 1.71 / 0.90 / 1.26 / 0.79 / 0.67 / 1.10 | 1.07 | 0/18
KLSGIMRQESKVSNSIA | EVNERPE | QQYDRLPLS | 1.27 / 1.80 / 0.95 / 2.70 / 1.09 / 0.95 | 1.46 | 0/18
HMSMLTLSGMRHTNSVA | QMTTREN | QQYDRLPLA | -0.24 / 0.45 / -0.07 / 0.52 / 0.10 / 0.16 | 0.15 | 0/18
IVSQLMLWGMHAKNSIA | EAQTRLN | QQYERLPLI | 0.37 / 0.24 / -0.02 / 0.03 / 0.18 / 0.22 | 0.17 | 0/18
KLSQTHGMEMVNRNSVA | ELVTRMN | QQYNRLPLS | 0.29 / 0.20 / 0.16 / 0.04 / 0.04 / 0.62 | 0.22 | 1/18 (2.54)
MISQLYNMGQFAINSVA | QAETRNE | QQYDRLPLI | 1.47 / 1.55 / 1.53 / 1.46 / 1.49 / 1.72 | 1.54 | 1/18 (2.15)
MVSQLMVWGLHTKNSIA | EAQTRIN | QQYDRLPLF | nd / nd / nd / 1.42 / nd / nd | 1.42 | 0/18
MMSQVTGMGSRQRNNVA | QTSTREP | QQYDRLPLI | 0.39 / 0.41 / 0.64 / 0.43 / 0.43 / 0.78 | 0.51 | 2/18 (2.61)
KIYGFPGQMTRQANSIA | DNTTREN | QQYNRLPLS | 3.08 / 1.90 / 3.29 / 1.76 / 1.87 / 2.79 | 2.45 | 1/18 (3.03)
KLSMITNHMQQSKNNVA | EMVTREN | QQYERLPLS | 0.29 / 0.16 / -0.01 / 0.05 / 0.10 / 0.16 | 0.12 | 0/18

A selection of 7 entries from above:

CDR-L1,CDR-L2,CDR-L3,"replicates, log10 nM","mean, log10 nM",signal with controls
SLYEMSYELSGKTHSVA,DNSTRGD,QQYFRLPLE,1.24 / 0.91 / 1.03 / 1.23 / 0.55 / 0.92,0.98,1/18 (2.35)
KIGMTLNQLMQKKNNVA,DLVTREN,QQYHRLPLS,0.12 / 0.41 / -0.10 / -0.28 / -0.10 / 0.14,0.03,0/18
KISQMVRVGSTHSNSIA,EEATRMK,QQYHRLPLA,nd / nd / nd / nd / nd / nd,nd,0/18
MVTQMAMTGMMSKRSVA,NAETRET,QQYHHLPLI,0.87 / 0.83 / 1.06 / 0.88 / 0.58 / 0.77,0.83,1/18 (3.54)
HITYGMQVMGRHSKSIA,QAETRED,QQYDRLPLI,0.51 / 0.84 / 0.88 / 0.37 / 0.63 / 0.71,0.66,2/18 (2.67)
NIYQAMHTLSMNRNNVA,DVNERGS,QQYFRLPLS,0.19 / -0.16 / -0.33 / -0.26 / -0.05 / -0.11,-0.12,2/18 (2.64)
MLSEVLHMLGVKKNSIA,DLVIRAN,QQYHRLPLF,nd / 0.96 / 1.24 / nd / nd / nd,1.10,0/18

In the paper, a design with two or fewer of six values counts as a poor binder.
Empty control strains, which show no peptide, gave a signal in 4% of pairings with all light chain designs; the median was 2.64 and 95% of these signals were weaker than 1.59. No background was subtracted. For each scFv, signals with the empty controls are counted beside the result, with their mean in brackets.
A sequence measured in both rounds can read differently, since the two assays cover different ranges.